One data set in a line: Kinetic solubility. It counts as physicochemical. To be noted: PBS pH 7.4, 2 h.
The next data set deals with Caco-2 cell line. Put plainly: Caco-2 permeability assay. It counts as in vitro ADME. To be noted: for Caco-2 permeability apical to basolateral / Caco-2 permeability basolateral to apical: 10 µM, 2 h, 37 °C; for Efflux ratio: Caco-2.
Another data set concerns the target CX3CR1 (Homo sapiens, UniProt P49238). Nature of the data set: Cellular CX3CR1 assay. To be noted: read-out: IC50 in cellular CX3CR1 assays. It counts as cell-based.
Data set [1] is described as follows: Intrinsic clearance, mouse. The class given is in vitro ADME. To be noted: 1 µM, 30 min incubation, tested form: Na salt.
A short description of data set [2]: Intrinsic clearance, human. It counts as in vitro ADME. To be noted: 1 µM, 30 min incubation, tested form: Na salt.
Another data set addresses PDE-V (guinea pig, lung) (Cavia porcellus, UniProt H0VD23). Nature of the data set: PDE-V enzyme assay. To be noted: read-out: IC50 in enzyme assays using PDE-V, tested form: Na salt. The class given is biochemical.

By UniProt entry, the sequences of proteins in these tests, tags left out.
UniProt P49238, whole entry: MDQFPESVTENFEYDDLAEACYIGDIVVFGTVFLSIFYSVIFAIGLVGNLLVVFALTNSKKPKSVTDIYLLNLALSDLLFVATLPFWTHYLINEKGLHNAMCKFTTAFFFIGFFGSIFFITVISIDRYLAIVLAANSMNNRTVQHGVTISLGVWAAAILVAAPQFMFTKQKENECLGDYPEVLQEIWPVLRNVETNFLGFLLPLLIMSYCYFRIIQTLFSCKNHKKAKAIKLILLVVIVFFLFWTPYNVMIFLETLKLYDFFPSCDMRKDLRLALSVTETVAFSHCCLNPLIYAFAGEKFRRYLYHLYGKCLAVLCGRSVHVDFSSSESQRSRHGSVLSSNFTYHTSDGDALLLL

pIC50: −log10 of the molar value.

In the case of `Clc1cccc(OCc2ncc3nccnc3n2)c1Cl`, in the data set “Kinetic solubility”, the Kinetic solubility came out at 170 µM. In addition, in the data set with Caco-2 cell line, the “Caco-2 permeability apical to basolateral” value was found to be 24.3 ×10⁻⁶ cm/s, the “Caco-2 permeability basolateral to apical” value was 20.9 ×10⁻⁶ cm/s and the Efflux ratio came to 0.86. In addition, the negative logarithm of the IC50 (pIC50) on CX3CR1 was 6.87.

On to `COc1ccc(CNc2nc(-c3ccc(C(=O)O)nc3)nc3sc4c(c23)CCCC4)cc1Cl`, for which, in “Kinetic solubility” (tested form: Na salt), the Kinetic solubility was determined as 150 µM. In the data set with Caco-2 cell line (tested form: Na salt), the “Caco-2 permeability apical to basolateral” value is 0.08 ×10⁻⁶ cm/s, the “Caco-2 permeability basolateral to apical” value is 0.22 ×10⁻⁶ cm/s and the Efflux ratio is 2.75. The Intrinsic clearance in data set [1] is 42.0 µl/min per mg protein. In addition, the Intrinsic clearance in data set [2] stood at 20.0 µl/min per mg protein. Besides, the pIC50 on PDE-V (guinea pig, lung) was 8.77.

Values taken from article PMC11796224, “Merck Open Global Health Library in vitro screening against Schistosoma mansoni identified two new substances with antischistosomal activities for further development” (Parasites & Vectors, 2025).
